The record followed here is ChEMBL document CHEMBL6153085, “Discovery of N-(1,2,4-Thiadiazol-5-yl)benzo[b]oxepine-4-carboxamide Derivatives as Novel Antiresistance Androgen Receptor Antagonists” (J Med Chem, 2025).

Series [1] can be described thus: in vivo. The following applies: rat, po, 5 mg/kg.
Series [2] can be described thus: in vivo. As to conditions: rat, po, 5 mg/kg. This is another data set of the same source.
Series [3] in a line: in vivo. The following applies: rat, iv, 1 mg/kg.
The nature of series [4]: in vivo. As to conditions: rat, po, 5 mg/kg. The source holds these as a separate data set.
A short description of series [5]: Half life in rat at 5 mg/kg, po. As to conditions: in vivo.

Usually bioavailability stands for dose-corrected exposure relative to a reference, in per cent. A lower bioavailability goes with little systemic uptake. Broadly, the Cmax is the peak of the concentration-time curve. What is called AUC(0-inf) is total exposure, with the tail of the curve extrapolated. A lower AUC(0-inf) goes with low exposure. Broadly, the half-life is the time needed for the level to fall by half in the phase considered. Read a high half-life as slow loss. With `O=C(Nc1nc(CN2CCOCC2)ns1)C1=Cc2cc(Cl)ccc2OC=C1`, the bioavailability in series [1] amounted to 30.6%. In series [2], this compound returned a Cmax of 0.148 µg/mL. Moreover, the AUC(0-inf) in series [3] was 0.441 µg·h/mL; in series [4] it was 0.833 µg·h/mL. Also, the half-life in series [5] was 3.54 h.
